Results: patent publication US20130190200A1, “SNP FOR PREDICTING THE SENSITIVITY TO ANTICANCER TARGETED THERAPEUTIC FORMULATION” (Korea Research Institute of Bioscience and Biotechnology, priority 2010, published 2013)

Experiments:
[1] = tested on: metastatic cancer patients; assay: Clinical association analysis of drug response (RECIST criteria) on subjects treated with anticancer targeted drugs; type: in vivo, human; conditions: homozygous reference alleles of DFNB31 rs2274159 and LIFR rs3729740; P=0.023, 0.049
Method: (§1) Clinical association analysis was performed on 69 subjects treated with bevacizumab and 67 subjects treated with cetuximab, whose progress of treatment with the corresponding anticancer drugs were confirmed, to investigate the clinical association. The prediction of clinical outcomes of the corresponding patients was based on the NCCN surveillance guidelines (www.nccn.org), and the determination of chemosensitivity to anticancer drugs were based on the RECIST criteria (Therasse et al., J Natl Cancer Inst 2000; 92:205-16). The observation period for the corresponding patients was an average of 13 months (in a range of 1 to 39 month), which was considered as a sufficient period for the determination of the results when considering that these drugs were administered to recurrent and metastatic cancer patients.

[2] = tested on: recurrent and metastatic colorectal cancer patients; assay: Clinical association analysis related to survival on subjects treated with anticancer targeted drugs; type: in vivo, human
Method: as §1
Association analysis was performed on the SNP genotypes sensitive to the individual anticancer drugs obtained in steps (1) and (2) in colorectal cancer patients whose treatment with the corresponding drugs was terminated. First, the association analysis was performed on the candidate SNP genotypes sensitive to the respective drugs in 69 patients treated with bevacizumab and 67 patients treated with cetuximab, including 98 recurrent and metastatic cancer patients with crossover treatment.

cetuximab
objective response rate and disease-control response rate, in words [1]: significantly high objective response rate (partial disease+complete response) and disease-control response rate
sensitivity and survival, in words (FIG. 3) ([2]; homozygous reference alleles of ISX rs361863 vs homozygous or heterozygous substitution alleles): greater sensitivity and longer progression-free survival
mean progression-free survival (PFS) ([2]; patients carrying homozygous reference alleles of ISX rs361863, P=0.046 vs substitution alleles): 8.5±1.2 months
mean progression-free survival (PFS) ([2]; patients with homozygous or heterozygous substitution alleles of ISX rs361863, P=0.046): 4.4±0.5 months
